These results are taken from patent US8633212B2, “Inhibitors of beta-secretase” (Vitae Pharmaceuticals, Inc., priority 2009, dated 2014).

Assay [1] concerns the target H4 neuroglioma cell line stably expressing APP with the KM-NL Swedish mutation (H4-APPsw); soluble Amyloid Beta 1-40 (Aβ 1-40) (Homo sapiens (Human), UniProt P56817). Kind of assay: BACE cell assay: soluble Aβ 1-40 in culture media of H4-APPsw cells (AlphaLISA/ELISA). The class given is cell-based. To be noted: in vitro cell activity; H4-APPsw cells treated overnight, secreted Aβ 1-40 in culture media.

Assay [2] addresses truncated human beta-secretase (residues 1-458, His6-tagged at the C-terminus) (Homo sapiens (Human), UniProt P56817). Briefly: BACE enzyme assay (fluorescence quench assay, Example 434A). The class given is biochemical.
[3] abbreviates: footnote a: protocols described in Example 434A, read-out: IC50.

Like-named read-outs stand apart in the source and are kept apart here.

As to `COC1CCC2(CC1)Cc1ccc(-c3cccc(OC(F)(F)F)c3)cc1C21N=C(N)N(C)O1` (stereo not shown) [Compound 9], the IC50 is under 500 nM in assay [1] and 7 nM in assay [2] (setting [3]).
As to `COC1CCC2(CC1)Cc1ccc(Br)cc1C21N=C(N)N(C2CC2)C1=O` (stereo not shown) [Compound 226], the IC50 in assay [2] amounted to 351 nM.
In the case of `CN1OC2(N=C1N)c1cc(-c3ccc(F)c(Cl)c3)ccc1CC21CCc2ccccc2CC1` (stereo not shown) [Compound 23], the figures for the IC50 in assay [1] and in assay [2] (read-out: IC50) were under 5000 nM and 20.7 nM, respectively.
In the case of `CN1OC2(N=C1N)c1cc(-c3cccc(OC(F)(F)F)c3)ccc1CC21CCc2ccccc2CC1` (stereo not shown) [Compound 38], the IC50 in assay [1] was under 50000 nM; in assay [2] (read-out: IC50), 130 nM.
The like results for `CN1OC2(N=C1N)c1cc(-c3cc(F)cc(Cl)c3)ccc1CC21CCc2ccccc2CC1` (stereo not shown) [Compound 15] were, in that order, under 5000 nM and 11.2 nM.
In turn, `COC1CCC2(CC1)Cc1ccc(-c3cncc(C(F)(F)F)c3)cc1C21N=C(N)N(C)C1=O` (stereo not shown) [Compound 185] showed an IC50 in assay [2] of 2.8 nM.
`COC1CCC2(CC1)Cc1ccc(-c3cc(Cl)cc(C#N)c3)cc1C21N=C(N)N(C)C1=O` (stereo not shown) [Compound 193] had an IC50 in assay [2] of 0.8 nM.
In the case of `COC1CCC2(CC1)Cc1ccc(-c3cccnc3F)cc1C21N=C(N)N(C)C1=O` (stereo not shown) [Compound 189], in assay [2], half-maximal inhibition (IC50) was put at 2.9 nM.
In assay [2], `CO[C@H]1CC[C@]2(CC1)Cc1ccccc1C21N=C(N)N(C)C1=O` (stereo partly shown) [Compound 218] yielded an IC50 of 161 nM.
Consider `CN1OC2(N=C1N)c1cc(-c3cccc(C#N)c3)ccc1CC21CCc2ccccc2CC1` (stereo not shown) [Compound 22], for which the IC50 in assay [1] is under 5000 nM; in assay [2] (read-out: IC50) it was 19.3 nM.
In the case of `CN1OC2(N=C1N)c1cc(C3CC3)ccc1CC21CCc2ccccc2CC1` (stereo not shown) [Compound 454], in assay [2] (setting [3]), the IC50 is 128 nM.
As for `COC1CCC2(CC1)Cc1ccc(-c3cccc(Cl)c3)cc1C21N=C(N)N(C)O1` (stereo not shown) [Compound 5], the values for the IC50 in assay [1] and in assay [2] (setting [3]) were under 500 nM and 4.5 nM, respectively.
Regarding `CCN1C(=O)C2(N=C1N)c1cc(-c3cccc(C#N)c3)ccc1CC21CCC(OC)CC1` (stereo not shown) [Compound 135], the IC50 in assay [2] (setting [3]) turned out to be 7.3 nM.
On to `CN1OC2(N=C1N)c1cc(-c3cccc(C#N)c3)ccc1CC21CCc2cc(F)c(F)cc2C1` (stereo not shown) [Compound 33], for which the IC50 in assay [2] (setting [3]) was 89 nM.
In the case of `COC1CCC2(CC1)Cc1ccc(C#Cc3ccsc3)cc1C21N=C(N)N(C)C1=O` (stereo not shown) [Compound 194], the IC50 in assay [2] was determined as 17.4 nM.
On to `COC1CCC2(CC1)Cc1ccc(C#CC3CC3)cc1C21N=C(N)N(C2CC2)C1=O` (stereo not shown) [Compound 225], for which half-maximal inhibition in assay [2] (IC50) required 20 nM.
Turning to `COC1CCC2(CC1)Cc1ccc(C#N)cc1C21N=C(N)N(C)C1=O` (stereo not shown) [Compound 214], the IC50 in assay [2] (setting [3]) stood at 30.9 nM.
As for `Cc1onc2c1CC1(CC2)Cc2ccc(-c3cncc(Cl)c3)cc2C12N=C(N)N(C)O2` (stereo not shown) [Compound 452], the IC50 in assay [2] (read-out: IC50) amounted to 7 nM.
In assay [2], `COC1CCC2(CC1)Cc1ccc(-c3ccc(F)c(Cl)c3)cc1C21N=C(N)N(C)C1=O` (stereo not shown) [Compound 178] gave an IC50 of 0.6 nM.
With `COC1CCC2(CC1)Cc1ccc(C#CC3(O)CCCC3)cc1C21N=C(N)N(C)C1=O` (stereo not shown) [Compound 195], 49.7 nM corresponded to half-maximal inhibition in assay [2] (IC50).
Consider `COC1CCC2(CC1)Cc1ccc(-c3ccc(F)c(Cl)c3)cc1C21N=C(N)N(C)O1` (stereo not shown) [Compound 13], for which the IC50 was under 500 nM in assay [1] and 8.8 nM in assay [2] (read-out: IC50).
Take `CO[C@H]1CC[C@@]2(CC1)Cc1ccc(Br)cc1C21CC(=O)N(C)C(N)=N1` (stereo partly shown) [Compound 66]: the IC50 in assay [2] (setting [3]) turned out to be 200000 nM.
In the case of `CCN1C(=O)C2(N=C1N)c1cc(-c3cccc(Cl)c3)ccc1CC21CCC(OC)CC1` (stereo not shown) [Compound 136], inhibition in assay [2] was half-maximal at 8.1 nM (IC50).
Regarding `COC1CCC2(CC1)Cc1ccc(-c3ccc(F)c(C#N)c3)cc1C21N=C(N)N(C)C1=O` (stereo not shown) [Compound 179], the IC50 in assay [2] is 2.6 nM.
With `CN1OC2(N=C1N)c1cc(-c3cc(Cl)cc(Cl)c3)ccc1CC21CCc2ccccc2CC1` (stereo not shown) [Compound 21], the figures for the half-maximal inhibitory concentration (IC50) in assay [1] and in assay [2] (read-out: IC50) were under 5000 nM and 18.9 nM, respectively.
`COC1CCC2(CC1)Cc1ccc(-c3cccc(C#N)c3)cc1C21N=C(N)N(C2CC2)C1=O` (stereo not shown) [Compound 227]: the IC50 in assay [2] (setting [3]) came out at 12 nM.
As to `COC1CCC2(CC1)Cc1ccc(-c3cncc(C(F)(F)F)c3)cc1C21N=C(N)N(C(C)C)C1=O` (stereo not shown) [Compound 155], the IC50 in assay [2] (setting [3]) came to 12.2 nM.
`Cc1onc2c1CC1(CC2)Cc2ccc(-c3cccc(C#N)c3)cc2C12N=C(N)N(C)C2=O` (stereo not shown) [Compound 462] had an IC50 in assay [2] of 1.4 nM.
Turning to `CN1C(=O)C2(N=C1N)c1cc(-c3cccnc3)ccc1CC21CCc2ccccc2CC1` (stereo not shown) [Compound 394], the IC50 in assay [2] (setting [3]) is 1.4 nM.
Regarding `CN1OC2(N=C1N)c1cc(-c3cc(F)cc(Cl)c3)ccc1OC21CCc2ccccc2CC1` (stereo not shown) [Compound 102], the IC50 in assay [2] (setting [3]) turned out to be 14.7 nM.
Turning to `COC1CCC2(CC1)Cc1ccc(-c3cnccn3)cc1C21N=C(N)N(C)C1=O` (stereo not shown) [Compound 197], in assay [2], the IC50 worked out at 29.6 nM.
On to `COC1CCC2(CC1)Cc1ccc(-c3cc(F)cc(C#N)c3)cc1C21N=C(N)N(C)C1=O` (stereo not shown) [Compound 192], for which the IC50 in assay [2] was 0.96 nM.
In turn, `COC1CCC2(CC1)Cc1ccc(-c3cccnc3)cc1C21N=C(N)N(C)C1=O` (stereo not shown) [Compound 184] yielded an IC50 in assay [2] of 3.3 nM.
`COC1CCC2(CC1)Cc1ccc(-c3cncc(Cl)c3)cc1C21N=C(N)N(C)C1=O` (stereo not shown) [Compound 187] displayed an IC50 in assay [2] of 2.6 nM.
In the case of `COc1cc(Cl)cc(-c2ccc3c(c2)C2(N=C(N)N(C)O2)C2(CCc4ccccc4CC2)C3)c1` (stereo not shown) [Compound 27], the values for the IC50 in assay [1] and in assay [2] (read-out: IC50) were under 10000 nM and 38.3 nM, respectively.
`COC1CCC2(CCc3ccc(-c4cccc(C#N)c4)cc3C23N=C(N)N(C)O3)CC1` (stereo not shown) [Compound 52]: the IC50 in assay [1] is under 5000 nM; in assay [2] (read-out: IC50), 506 nM.
For `COC1CCC2(CC1)Cc1ccc(-c3cccc(C#N)c3)cc1C21N=C(N)N(C(C)C)C1=O` (stereo not shown) [Compound 154], the IC50 in assay [2] (setting [3]) amounted to 30.1 nM.
As for `CN1OC2(N=C1N)c1cc(-c3cc(Cl)cc(C#N)c3)ccc1CC21CCc2ccccc2CC1` (stereo not shown) [Compound 10], the IC50 in assay [1] was under 5000 nM; in assay [2] (read-out: IC50) it was 7.4 nM.
Consider `Cc1onc2c1CC1(CC2)Cc2ccc(-c3cccnc3)cc2C12N=C(N)N(C)C2=O` (stereo not shown) [Compound 464], for which, in assay [2] (setting [3]), the IC50 worked out at 7.9 nM.
Compound `COC1CCC2(CC1)Cc1ccc(-c3cc(F)cc(F)c3)cc1C21N=C(N)N(C)C1=O` (stereo not shown) [Compound 183] returned an IC50 in assay [2] of 1 nM.
Take `Cc1onc2c1CC1(CC2)Cc2ccc(-c3cncc(Cl)c3)cc2C12N=C(N)N(C)C2=O` (stereo not shown) [Compound 466]: the IC50 in assay [2] (setting [3]) is 13.2 nM.
For `COC1CCC2(CC1)Cc1ccc(-c3cncc(F)c3)cc1C21N=C(N)N(C)C1=O` (stereo not shown) [Compound 188], in assay [2], it took 1.9 nM to reach half-maximal inhibition (IC50).
Take `COC1CCC2(CC1)Cc1ccc(-c3cccc(Cl)c3)cc1C21N=C(N)N(C(C)C)C1=O` (stereo not shown) [Compound 153]: the IC50 in assay [2] amounted to 36.6 nM.
`COC1CCC2(CC1)Cc1ccc(C3CC3)cc1C21N=C(N)N(C)C1=O` (stereo not shown) [Compound 191] had an IC50 in assay [2] of 102 nM.
On to `COC1CCC2(CC1)Cc1ccc(-c3ccc(F)c(C#N)c3)cc1C21N=C(N)N(C)O1` (stereo not shown) [Compound 12], for which the IC50 is under 100 nM in assay [1] and 7.9 nM in assay [2] (read-out: IC50).
The like results for `CN1OC2(N=C1N)c1cc(-c3cccc(Cl)c3)ccc1CC21CCc2ccccc2CC1` (stereo not shown) [Compound 17] were, in that order, under 1000 nM and 12.1 nM.
Consider `CN1OC2(N=C1N)c1cc(-c3cccc(C#N)c3)ccc1CC21CCCCC1` (stereo not shown) [Compound 94], for which the IC50 in assay [2] (read-out: IC50) came to 222 nM.
For `COC1CCC2(CC1)Cc1ccc(-c3cccnc3)cc1C21N=C(N)N(Cc2ccccc2)C1=O` (stereo not shown) [Compound 139], the IC50 in assay [2] (setting [3]) was 13.6 nM.
